# Results taken from PubChem BioAssay AID1481 (The Scripps Research Institute Molecular Screening Center, 2009).
# Sequences of proteins named here, by UniProt entry; tags and fusion partners are left off.
# UniProt P55072, whole entry: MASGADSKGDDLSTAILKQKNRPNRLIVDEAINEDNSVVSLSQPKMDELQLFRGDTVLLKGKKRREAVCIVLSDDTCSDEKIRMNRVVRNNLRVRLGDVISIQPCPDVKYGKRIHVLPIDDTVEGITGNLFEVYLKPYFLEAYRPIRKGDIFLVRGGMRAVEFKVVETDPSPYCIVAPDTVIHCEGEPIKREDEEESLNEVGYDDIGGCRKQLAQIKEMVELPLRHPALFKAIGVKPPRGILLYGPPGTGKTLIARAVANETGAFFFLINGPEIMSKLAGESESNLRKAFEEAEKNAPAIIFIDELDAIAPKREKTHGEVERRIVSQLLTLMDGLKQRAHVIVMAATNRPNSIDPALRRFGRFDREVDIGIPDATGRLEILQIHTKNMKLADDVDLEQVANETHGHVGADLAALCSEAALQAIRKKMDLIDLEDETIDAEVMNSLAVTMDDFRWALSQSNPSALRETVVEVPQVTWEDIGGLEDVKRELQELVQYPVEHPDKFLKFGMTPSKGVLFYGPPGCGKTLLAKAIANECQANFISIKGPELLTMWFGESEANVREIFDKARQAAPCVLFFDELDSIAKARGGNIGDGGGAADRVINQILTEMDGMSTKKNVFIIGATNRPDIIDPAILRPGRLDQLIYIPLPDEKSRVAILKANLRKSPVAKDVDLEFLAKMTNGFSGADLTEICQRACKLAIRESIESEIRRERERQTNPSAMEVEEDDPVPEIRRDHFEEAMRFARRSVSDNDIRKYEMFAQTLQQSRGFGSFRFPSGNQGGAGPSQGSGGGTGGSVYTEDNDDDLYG
# Only a part is listed here, and it is no random draw. Calls of active or inactive are those of the source. Cut-off read from the data, not from the text of the source: active = inhibition above about 15%; inactive = the rest.
# Biological target: Transitional endoplasmic reticulum ATPase (Homo sapiens) (UniProt P55072)
# Assay: p97 ATP hydrolysis blockers – biochemical, primary screen (AID 1481);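 note: 0% = DMSO vehicle and 100% = wells lacking enzyme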
# Settings: recombinant p97 ATPase, Kinase-Glo ATP luminescence, 3 h; at 8 µM; stronger effect = higher value
row,SMILES,inhibition
1,COc1ccccc1OP(C)(=O)Nc1cccc(Br)c1 (stereo not drawn),active: 14.8%
2,CCOC(=O)c1ccc(NP(C)(=O)Oc2cc(C)cc(C)c2)cc1 (stereo not drawn),inactive: -3.53%
3,Cc1cc(C)cc(OP(C)(=O)Nc2ccc(C)cc2C)c1 (stereo not drawn),inactive: -3.1%
4,Cc1ccc(C)c(NP(C)(=O)Oc2ccccc2)c1 (stereo not drawn),inactive: -2.37%
5,Cc1cc(C)cc(OP(C)(=O)Nc2ccccn2)c1 (stereo not drawn),inactive: 1.11%
6,CP(=O)(Nc1cccc(Br)c1)Oc1ccccc1 (stereo not drawn),inactive: 0.03%
7,O=C(O)c1cccc(Nc2c([N+](=O)[O-])cc([N+](=O)[O-])cc2[N+](=O)[O-])c1,inactive: 6.75%
8,CC1=NCCc2c1[nH]c1ccccc21.O=[N+]([O-])c1cc([N+](=O)[O-])c(O)c([N+](=O)[O-])c1,inactive: -5.56%
9,CCOC(=O)C(CC)C1=NC(C)(C)Cc2ccccc21.O=[N+]([O-])c1cc([N+](=O)[O-])c(O)c([N+](=O)[O-])c1 (stereo not drawn),inactive: 0.44%
10,O=[N+]([O-])c1cc([N+](=O)[O-])c(Nc2nnnn2CCO)c([N+](=O)[O-])c1,inactive: 6.33%
11,COc1ccccc1OP(C)(=O)Nc1c(C)cccc1C (stereo not drawn),inactive: -3.46%
12,CN1CCCCC1COC(=O)C1(O)c2ccccc2CCc2ccccc21 (stereo not drawn),inactive: 3.65%
13,CCCOc1ccc(NP(C)(=O)Oc2ccc(Cl)cc2)cc1 (stereo not drawn),inactive: -0.5%
14,CP(=O)(Nc1ccc(SC(F)(F)F)cc1)Oc1ccccc1 (stereo not drawn),inactive: -1.4%
15,O=[N+]([O-])c1cc([N+](=O)[O-])c(-n2nnc3ccccc32)c([N+](=O)[O-])c1,inactive: 0.83%
16,Cc1nc2ccc3ccccc3c2s1.O=[N+]([O-])c1cc([N+](=O)[O-])c(O)c([N+](=O)[O-])c1,inactive: 10.2%
17,CP(=O)(Oc1ccccc1)OC(c1ccccc1)C(F)(F)F (stereo not drawn),inactive: -4.01%
18,Cc1cccc(C)c1OP(C)(=O)Nc1ccc(SC(F)(F)F)cc1 (stereo not drawn),inactive: 3.8%
19,CP(=O)(Nc1ccc(SC(F)(F)F)cc1)Oc1ccc(Cl)cc1 (stereo not drawn),inactive: -7.79%
20,Cc1cc(C)cc(OP(C)(=O)Nc2ccc(SC(F)(F)F)cc2)c1 (stereo not drawn),inactive: -8.16%
21,CP(=O)(NC(=O)Nc1ccccc1)Oc1ccccc1 (stereo not drawn),inactive: -2.02%

row,SMILES,inhibition
1,CCc1ccc(OP(C)(=O)N2CCN(c3ccc([N+](=O)[O-])cc3)CC2)cc1 (stereo not drawn),inactive: -9.84%
2,CCOC(=O)c1ccc(NP(C)(=O)Oc2ccc(OC)cc2)cc1 (stereo not drawn),inactive: -0.29%
3,CCOP(C)(=S)SCC(=O)NC(C)C(=O)O (stereo not drawn),inactive: -7.21%
4,CP(=O)(Nc1ccccn1)Oc1ccc(Cl)cc1 (stereo not drawn),inactive: 0.85%
5,CP(=S)(Nn1cnnc1)Oc1ccccc1 (stereo not drawn),inactive: -0.61%
6,CP(=O)(Nc1ccccc1Br)Oc1ccccc1 (stereo not drawn),inactive: -5.69%
7,COc1ccccc1OP(C)(=O)Nc1ccccc1 (stereo not drawn),inactive: 0.75%
8,O=[N+]([O-])c1ccc2c(c1)C=Nc1ccccc1O2,inactive: 1.21%
9,Cc1cccc(C)c1OP(C)(N)=O (stereo not drawn),inactive: 2.73%
10,CC(C)(C)c1ccc(OP(C)(=O)Nc2ccc(SC(F)(F)F)cc2)cc1 (stereo not drawn),inactive: 3.23%
11,Cc1ccc(NP(C)(=O)Oc2ccccc2)c(C)c1 (stereo not drawn),inactive: 1.33%
12,COc1ccccc1OP(C)(=O)Nc1ccc(C)cc1 (stereo not drawn),inactive: -2.41%
13,CCOC(=O)c1ccc(NP(C)(=O)Oc2ccccc2)cc1 (stereo not drawn),inactive: 0.77%
14,Cc1cc(C)cc(OP(C)(N)=O)c1 (stereo not drawn),inactive: -5.21%
15,COc1ccc(OP(C)(=O)Nc2cccc(F)c2)cc1 (stereo not drawn),inactive: 1.06%
16,COc1ccccc1OP(C)(=O)Nc1cc(Cl)ccc1C (stereo not drawn),inactive: -5.78%
17,CCN(CC)CCCOC(=O)C(O)(c1ccccc1)c1ccccc1,inactive: 7.41%
18,COc1ccccc1OP(C)(=O)Nc1ccc(Br)cc1 (stereo not drawn),inactive: -2.8%
19,COc1ccc(OP(C)(=O)Nc2ccccn2)cc1 (stereo not drawn),inactive: -0.86%
20,CN(C)CCOC(=O)C(O)(c1ccccc1)C1CCCC1 (stereo not drawn),inactive: -0.95%
21,Cc1c(NP(C)(=O)Oc2ccc(C(C)C)cc2)c(=O)n(-c2ccccc2)n1C (stereo not drawn),inactive: 0.29%

row,SMILES,inhibition
1,O=[N+]([O-])c1cc([N+](=O)[O-])c(Nc2ccccn2)c([N+](=O)[O-])c1,inactive: 4.22%
2,COc1ccccc1OP(C)(=O)Nc1ccc(C)cc1C (stereo not drawn),inactive: -6.28%
3,CP(=O)(Nc1ccccn1)Oc1ccccc1 (stereo not drawn),inactive: 1.13%
4,CCc1ccc(OP(C)(=O)O)cc1,inactive: -2.21%
5,Cc1cc(C)cc(OP(C)(=O)Nc2cccc(C(F)(F)F)c2)c1 (stereo not drawn),inactive: 0.38%
6,COc1ccccc1OP(C)(=O)Nc1ccc(C)c(C)c1 (stereo not drawn),inactive: 0.07%
7,COc1ccc(OP(C)(=O)Nc2ccccc2Br)cc1 (stereo not drawn),inactive: 1.26%
8,Cc1nc2ccc3ccccc3c2o1.O=[N+]([O-])c1cc([N+](=O)[O-])c(O)c([N+](=O)[O-])c1,inactive: 5.63%
9,CP(=O)(Nc1ccc(Cl)cc1Cl)Oc1ccccc1 (stereo not drawn),inactive: -1.27%
10,CP(=O)(OCCOc1ccccc1)OCCOc1ccccc1,inactive: -4.36%
11,CCOC(=O)c1ccc(NP(C)(=O)Oc2ccc(Cl)cc2)cc1 (stereo not drawn),inactive: 4.19%
12,CP(=O)(OC12CC3CC(CC(C3)C1)C2)OC12CC3CC(CC(C3)C1)C2,inactive: -6.73%
13,COc1ccc(OP(C)(=O)Nc2ccc(Br)cc2)cc1 (stereo not drawn),inactive: -0.97%
14,CCN(CC)CC(O)COC(=O)C(O)(c1ccccc1)C1CCCCC1 (stereo not drawn),inactive: -0.2%
15,O=C(OCCCN1CCCC1)C(O)(c1ccccc1)C1CCCCC1 (stereo not drawn),inactive: 4.86%
16,COc1ccccc1OP(C)(=O)Nc1c(C)n(C)n(-c2ccccc2)c1=O (stereo not drawn),inactive: -5.25%
17,CCc1ccc(OP(C)(=O)Nc2cccnc2)cc1 (stereo not drawn),inactive: 3.79%
18,CP(=O)(Oc1ccccc1)N1CCOC1=O (stereo not drawn),inactive: -4.95%
19,COc1ccccc1OP(C)(=O)Nc1ccccc1Br (stereo not drawn),inactive: 2.61%
20,CC(C)(C)c1ccc(OP(C)(=O)O)cc1,inactive: 3.85%
21,CP(=O)(Nc1ccc(Cl)cc1)Oc1ccc(F)cc1 (stereo not drawn),inactive: -5.26%
